This is an account of results in PMC7355633.

This experiment has as its target VX-inhibited hAChE (Homo sapiens, UniProt P22303). In words: Reactivability of VX-inhibited hAChE by mice plasma sampled after i.p. oxime (pharmacodynamic clearance). To be noted: 23.3 µmol/kg i.p.

For the compound `O/N=C/c1nc(CCCCNc2c3c(nc4ccccc24)CCCC3)ccc1O`, the “React Max (peak of reactivability)” value came out at 5.1 ± 1.1%.
